In ChEMBL document CHEMBL1138057, “Synthesis and structure-activity relationships of N-{3-[2-(4-alkoxyphenoxy)thiazol-5-yl]-1- methylprop-2-ynyl}carboxy derivatives as selective acetyl-CoA carboxylase 2 inhibitors” (J Med Chem, 2006):
pIC50: −log10 of the molar value.

Biological target: Acetyl-CoA carboxylase 1 (Rattus norvegicus, UniProt P11497)
Assay: Inhibitory activity against rat ACC1

- pIC50: 7.28
Structure (SMILES): O=C(c1c2ccccc2cc2ccccc12)N1CCC(N2CCC[C@@H](C(=O)N3CCOCC3)C2)CC1
